pKi: −log10 of the molar value.
Tests used:
[1] = target: Serotonin 3 (5-HT3) receptor (Rattus norvegicus, UniProt P35563+Q9JJ16); assay: The compound was tested for the binding affinity against 5-hydroxytryptamine 3 receptor using [3H]zacopride as radioligand.; assay type: protein-complex assay
[2] = target: 5-hydroxytryptamine receptor 1A (Rattus norvegicus, UniProt P19327); assay: The compound was tested for the binding affinity against 5-hydroxytryptamine 1A receptor using [3H]8-OH-DPAT as radioligand.

The chains behind the UniProt entries cited, without tags or fusion partners. Where a name states a change or a piece, a line headed by the entry shows the natural chain unless it says otherwise.
UniProt P35563, whole entry: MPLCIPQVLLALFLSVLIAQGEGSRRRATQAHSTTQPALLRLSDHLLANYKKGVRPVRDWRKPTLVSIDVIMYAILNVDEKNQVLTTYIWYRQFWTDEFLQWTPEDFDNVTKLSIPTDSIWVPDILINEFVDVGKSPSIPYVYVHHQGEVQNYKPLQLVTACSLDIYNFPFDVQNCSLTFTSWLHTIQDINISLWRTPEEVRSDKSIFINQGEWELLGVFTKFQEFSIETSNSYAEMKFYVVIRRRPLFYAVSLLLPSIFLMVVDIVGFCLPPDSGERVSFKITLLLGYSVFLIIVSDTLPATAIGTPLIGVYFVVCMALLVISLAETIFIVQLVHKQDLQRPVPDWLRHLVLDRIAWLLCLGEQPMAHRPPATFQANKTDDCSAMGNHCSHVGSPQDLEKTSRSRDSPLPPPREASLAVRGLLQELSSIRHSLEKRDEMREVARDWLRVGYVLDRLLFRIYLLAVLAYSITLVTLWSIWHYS
UniProt Q9JJ16: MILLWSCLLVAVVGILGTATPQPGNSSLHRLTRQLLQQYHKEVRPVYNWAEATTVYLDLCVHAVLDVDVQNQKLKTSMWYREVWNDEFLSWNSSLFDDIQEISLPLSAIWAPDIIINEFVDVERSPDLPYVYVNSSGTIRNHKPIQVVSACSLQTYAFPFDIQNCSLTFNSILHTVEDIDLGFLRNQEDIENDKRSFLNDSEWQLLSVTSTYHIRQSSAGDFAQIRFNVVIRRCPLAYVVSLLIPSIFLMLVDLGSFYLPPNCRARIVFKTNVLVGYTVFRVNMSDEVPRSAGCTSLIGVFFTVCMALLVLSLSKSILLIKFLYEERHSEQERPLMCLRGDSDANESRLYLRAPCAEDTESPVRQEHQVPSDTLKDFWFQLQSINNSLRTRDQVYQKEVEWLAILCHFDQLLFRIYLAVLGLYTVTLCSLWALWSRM
UniProt P19327, whole entry: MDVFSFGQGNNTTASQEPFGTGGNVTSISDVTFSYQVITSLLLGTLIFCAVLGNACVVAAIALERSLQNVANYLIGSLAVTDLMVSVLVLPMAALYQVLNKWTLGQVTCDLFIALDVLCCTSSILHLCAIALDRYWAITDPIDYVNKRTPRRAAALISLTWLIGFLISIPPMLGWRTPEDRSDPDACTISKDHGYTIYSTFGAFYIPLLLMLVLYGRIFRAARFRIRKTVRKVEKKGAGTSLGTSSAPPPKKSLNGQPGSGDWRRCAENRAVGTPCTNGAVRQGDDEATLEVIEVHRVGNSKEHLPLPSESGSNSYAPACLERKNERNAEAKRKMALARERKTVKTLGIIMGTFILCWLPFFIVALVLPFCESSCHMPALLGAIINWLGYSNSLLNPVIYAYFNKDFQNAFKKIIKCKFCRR

Question: `NCCc1c[nH]c2ccc(O)cc12` [SEROTONIN] was tested. Which pKi [1] did it give?
Answer: 6.40

Question: What about the pKi [2] of the same compound?
Answer: 8.80
